# Publication PMC11286772, “Structural basis of antagonist selectivity in endothelin receptors” (Cell Discovery, 2024)
# By UniProt entry, the sequences of proteins in these tests, tags left out. Residues count along the entry.
# UniProt P25101, 21-427: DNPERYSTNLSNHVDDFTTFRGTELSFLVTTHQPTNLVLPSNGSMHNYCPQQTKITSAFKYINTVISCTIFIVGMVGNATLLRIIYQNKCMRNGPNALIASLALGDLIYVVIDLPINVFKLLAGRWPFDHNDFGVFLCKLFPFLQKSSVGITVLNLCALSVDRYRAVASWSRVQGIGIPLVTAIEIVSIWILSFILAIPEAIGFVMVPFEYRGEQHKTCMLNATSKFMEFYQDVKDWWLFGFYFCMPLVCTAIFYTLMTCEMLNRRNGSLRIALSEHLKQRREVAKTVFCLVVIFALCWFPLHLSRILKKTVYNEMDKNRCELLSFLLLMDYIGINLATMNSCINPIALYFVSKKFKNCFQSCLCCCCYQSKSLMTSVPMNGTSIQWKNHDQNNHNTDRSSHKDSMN
# UniProt P25101, 21-427 F161A: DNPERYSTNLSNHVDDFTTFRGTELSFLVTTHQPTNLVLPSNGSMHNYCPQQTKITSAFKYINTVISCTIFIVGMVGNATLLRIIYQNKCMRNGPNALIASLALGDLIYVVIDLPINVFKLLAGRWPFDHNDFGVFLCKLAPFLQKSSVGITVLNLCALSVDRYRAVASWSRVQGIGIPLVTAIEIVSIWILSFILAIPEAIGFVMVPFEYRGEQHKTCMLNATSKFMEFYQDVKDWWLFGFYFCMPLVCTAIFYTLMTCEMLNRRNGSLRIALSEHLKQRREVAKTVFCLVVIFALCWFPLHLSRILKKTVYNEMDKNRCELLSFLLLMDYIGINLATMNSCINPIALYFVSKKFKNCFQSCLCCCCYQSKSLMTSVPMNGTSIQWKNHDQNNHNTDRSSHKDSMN
# UniProt P25101, 21-427 L259A: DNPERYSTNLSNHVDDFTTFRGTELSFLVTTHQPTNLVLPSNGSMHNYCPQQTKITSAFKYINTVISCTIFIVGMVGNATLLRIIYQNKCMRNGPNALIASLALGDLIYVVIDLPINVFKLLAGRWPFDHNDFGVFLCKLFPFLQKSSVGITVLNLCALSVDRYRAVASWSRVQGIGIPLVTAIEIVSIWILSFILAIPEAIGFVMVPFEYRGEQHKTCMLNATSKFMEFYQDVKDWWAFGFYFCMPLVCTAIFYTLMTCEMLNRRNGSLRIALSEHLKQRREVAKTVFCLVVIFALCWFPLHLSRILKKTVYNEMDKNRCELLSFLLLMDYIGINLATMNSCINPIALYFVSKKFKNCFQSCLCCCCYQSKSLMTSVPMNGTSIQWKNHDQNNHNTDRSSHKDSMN
# UniProt P25101, 21-427 L322A: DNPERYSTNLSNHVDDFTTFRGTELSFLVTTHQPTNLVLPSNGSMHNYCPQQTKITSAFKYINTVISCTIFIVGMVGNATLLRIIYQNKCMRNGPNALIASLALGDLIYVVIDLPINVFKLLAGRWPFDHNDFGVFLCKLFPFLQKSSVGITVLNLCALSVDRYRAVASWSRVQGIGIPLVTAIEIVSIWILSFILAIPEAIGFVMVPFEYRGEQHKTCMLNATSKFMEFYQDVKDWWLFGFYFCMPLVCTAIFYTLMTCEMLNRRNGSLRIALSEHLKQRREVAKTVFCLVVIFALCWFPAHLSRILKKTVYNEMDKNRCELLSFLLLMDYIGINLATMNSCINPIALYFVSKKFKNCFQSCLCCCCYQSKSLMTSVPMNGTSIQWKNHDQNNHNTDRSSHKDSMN
# UniProt P25101, 21-427 R326A: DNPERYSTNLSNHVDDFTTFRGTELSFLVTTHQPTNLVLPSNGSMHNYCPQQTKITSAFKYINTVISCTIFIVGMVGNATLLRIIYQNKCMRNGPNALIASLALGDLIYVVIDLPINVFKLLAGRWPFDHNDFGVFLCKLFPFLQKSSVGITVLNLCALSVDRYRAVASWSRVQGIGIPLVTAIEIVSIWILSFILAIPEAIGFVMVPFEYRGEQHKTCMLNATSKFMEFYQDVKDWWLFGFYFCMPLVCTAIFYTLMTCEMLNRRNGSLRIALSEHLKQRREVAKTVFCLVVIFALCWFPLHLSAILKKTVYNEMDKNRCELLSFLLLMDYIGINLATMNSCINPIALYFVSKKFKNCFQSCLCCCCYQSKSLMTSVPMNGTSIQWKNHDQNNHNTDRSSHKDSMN
# UniProt P25101, 21-427 Y129A: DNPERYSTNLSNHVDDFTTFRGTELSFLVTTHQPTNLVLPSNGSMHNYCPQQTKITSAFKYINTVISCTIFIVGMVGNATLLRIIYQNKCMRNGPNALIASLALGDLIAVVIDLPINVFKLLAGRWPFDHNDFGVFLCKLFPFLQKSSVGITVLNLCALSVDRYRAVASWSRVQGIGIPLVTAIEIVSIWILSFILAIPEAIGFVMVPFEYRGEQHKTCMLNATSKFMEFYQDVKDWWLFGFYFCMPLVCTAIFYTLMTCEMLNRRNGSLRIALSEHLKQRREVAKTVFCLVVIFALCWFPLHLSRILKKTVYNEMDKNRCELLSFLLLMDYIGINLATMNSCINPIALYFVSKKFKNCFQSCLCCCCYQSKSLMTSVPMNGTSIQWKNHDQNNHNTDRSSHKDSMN
# UniProt P25101, 21-427 Y129F: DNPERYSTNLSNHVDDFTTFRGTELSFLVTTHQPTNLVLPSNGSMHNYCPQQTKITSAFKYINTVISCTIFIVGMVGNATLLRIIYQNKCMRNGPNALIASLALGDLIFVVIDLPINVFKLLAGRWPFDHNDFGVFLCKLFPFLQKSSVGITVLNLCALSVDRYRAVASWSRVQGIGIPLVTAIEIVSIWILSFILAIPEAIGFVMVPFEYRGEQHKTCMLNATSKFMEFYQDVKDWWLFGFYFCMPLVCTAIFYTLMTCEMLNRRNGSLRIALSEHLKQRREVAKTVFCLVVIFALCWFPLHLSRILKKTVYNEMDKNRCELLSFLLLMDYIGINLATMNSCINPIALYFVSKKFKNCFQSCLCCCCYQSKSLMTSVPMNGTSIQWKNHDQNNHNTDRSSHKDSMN
# UniProt P25101, 21-427 Y129H: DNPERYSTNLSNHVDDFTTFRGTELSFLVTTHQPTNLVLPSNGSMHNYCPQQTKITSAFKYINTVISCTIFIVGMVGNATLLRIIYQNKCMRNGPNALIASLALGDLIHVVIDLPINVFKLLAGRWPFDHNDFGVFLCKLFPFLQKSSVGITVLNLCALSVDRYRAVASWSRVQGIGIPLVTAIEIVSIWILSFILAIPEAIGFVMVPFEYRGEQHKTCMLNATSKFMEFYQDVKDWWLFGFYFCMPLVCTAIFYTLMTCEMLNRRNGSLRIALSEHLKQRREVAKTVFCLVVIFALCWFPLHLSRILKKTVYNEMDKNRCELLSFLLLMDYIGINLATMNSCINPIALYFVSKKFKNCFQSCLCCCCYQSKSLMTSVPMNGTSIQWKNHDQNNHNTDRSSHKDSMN
# UniProt P25101, 21-427 Y263A: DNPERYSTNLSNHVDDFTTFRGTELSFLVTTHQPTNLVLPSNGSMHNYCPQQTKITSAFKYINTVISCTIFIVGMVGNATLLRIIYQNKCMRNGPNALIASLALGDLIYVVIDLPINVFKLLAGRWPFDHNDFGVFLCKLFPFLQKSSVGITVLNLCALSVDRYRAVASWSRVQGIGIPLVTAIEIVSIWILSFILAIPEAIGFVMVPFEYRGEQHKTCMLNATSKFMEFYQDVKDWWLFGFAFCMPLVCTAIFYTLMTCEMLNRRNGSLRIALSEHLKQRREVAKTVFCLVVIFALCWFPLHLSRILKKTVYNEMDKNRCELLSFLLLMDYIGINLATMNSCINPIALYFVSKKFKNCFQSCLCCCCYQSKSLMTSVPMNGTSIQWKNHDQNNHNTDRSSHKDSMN
# Like-named read-outs stand apart in the source and are kept apart here.
# Key:
# Type in all cases: cell-based
# [1] = target: T1, ETA WT (Homo sapiens, UniProt P25101); assay: Calcium mobilization assay, antagonist mode (ET-1 stimulated), CHO-K1 cells
# T1 construct: expressed in transfected cells; host or cells: CHO-K1
# Method: CHO-K1 cells were cultured in Ham’s F-12K (Kaighn’s) Medium (Gibco-Thermo Fisher Scientific) supplemented with 10% (v/v) fetal bovine serum (FBS; Gibco-Thermo Fisher Scientific), and 100 U/mL Penicillin-Streptomycin (Gibco-Thermo Fisher Scientific) in a humidified incubator at 37 °C with 5% CO2. Cells were seeded in 6-cm dishes overnight; when the density reached 60%–80%, the cells were transferred to F12K Medium supplemented with 10% FBS and transfected with 1.5 μg DNA encoding the ETA WT or mutants or 3 μg DNA encoding the ETB WT or mutants using TransIT2020 (Mirus Biosciences). The next day, transfected cells were harvested from the plate using Versene buffer (Gibco-Thermo Fisher Scientific) and seeded into black-sided, clear-bottomed 384-well plates (Agilent) at a density of 1,5000 cells per well. After 20 h, the 1% dFBS medium was removed, and cells were loaded with 20 μL/well of 1× Calcium 6 dye (Molecular Devices) and incubated at 37 °C for 1 h in the dark. […] All data were analyzed using GraphPad Prism 8 and the data are from at least three independent replicate experiments. All plots are shown as means ± SEM. Data were determined using one-way ANOVA followed by Dunnett’s multiple test compared with WT. The top value was normalized to 100% and the bottom value was normalized to 0% for the final presentation. […]
# [2] = target: T2, ETA F161^3.28A (Homo sapiens, UniProt P25101, F161A); assay: Calcium mobilization assay, antagonist mode
# T2 construct: expressed in transfected cells; host or cells: CHO-K1
# Method: (§1) CHO-K1 cells were cultured in Ham’s F-12K (Kaighn’s) Medium (Gibco-Thermo Fisher Scientific) supplemented with 10% (v/v) fetal bovine serum (FBS; Gibco-Thermo Fisher Scientific), and 100 U/mL Penicillin-Streptomycin (Gibco-Thermo Fisher Scientific) in a humidified incubator at 37 °C with 5% CO2. Cells were seeded in 6-cm dishes overnight; when the density reached 60%–80%, the cells were transferred to F12K Medium supplemented with 10% FBS and transfected with 1.5 μg DNA encoding the ETA WT or mutants or 3 μg DNA encoding the ETB WT or mutants using TransIT2020 (Mirus Biosciences). The next day, transfected cells were harvested from the plate using Versene buffer (Gibco-Thermo Fisher Scientific) and seeded into black-sided, clear-bottomed 384-well plates (Agilent) at a density of 1,5000 cells per well. After 20 h, the 1% dFBS medium was removed, and cells were loaded with 20 μL/well of 1× Calcium 6 dye (Molecular Devices) and incubated at 37 °C for 1 h in the dark. […] All data were analyzed using GraphPad Prism 8 and the data are from at least three independent replicate experiments. All plots are shown as means ± SEM. Data were determined using one-way ANOVA followed by Dunnett’s multiple test compared with WT. The top value was normalized to 100% and the bottom value was normalized to 0% for the final presentation. Nonlinear curve fit was performed using a four-parameter logistic equation (log (agonist vs response) or log (inhibitor vs response)).
# [3] = target: T3, ETA L259^5.42A (Homo sapiens, UniProt P25101, L259A); assay: Calcium mobilization assay, antagonist mode
# T3 construct: expressed in transfected cells; host or cells: CHO-K1
# Method: as §1
# [4] = target: T4, ETA L322^6.51A (Homo sapiens, UniProt P25101, L322A); assay: Calcium mobilization assay, antagonist mode
# T4 construct: expressed in transfected cells; host or cells: CHO-K1
# Method: as §1
# [5] = target: T5, ETA R326^6.55A (Homo sapiens, UniProt P25101, R326A); assay: Calcium mobilization assay, antagonist mode
# T5 construct: expressed in transfected cells; host or cells: CHO-K1
# Method: as §1
# [6] = target: T6, ETA Y129^2.53A (Homo sapiens, UniProt P25101, Y129A); assay: Calcium mobilization assay, antagonist mode
# T6 construct: expressed in transfected cells; host or cells: CHO-K1
# Method: as §1
# [7] = target: T7, ETA Y129^2.53F (Homo sapiens, UniProt P25101, Y129F); assay: Calcium mobilization assay, antagonist mode
# T7 construct: expressed in transfected cells; host or cells: CHO-K1
# Method: as §1
# [8] = target: T8, ETA Y129^2.53H (Homo sapiens, UniProt P25101, Y129H); assay: Calcium mobilization assay, antagonist mode
# T8 construct: expressed in transfected cells; host or cells: CHO-K1
# Method: as §1
# [9] = target: T9, ETA Y263^5.46A (Homo sapiens, UniProt P25101, Y263A); assay: Calcium mobilization assay, antagonist mode
# T9 construct: expressed in transfected cells; host or cells: CHO-K1
# Method: as §1
smiles,measurement,setting,value
COc1nc(C)cnc1NS(=O)(=O)c1cccnc1-c1ccc(-c2nnco2)cc1 [zibotentan],IC50,"[1]; CHO-K1 cells, n = 5, read-out: IC50, inhibition activity on ETA in calcium mobilization assay",0.0086 µM
same,IC50,[1]; read-out: pIC50±S.E.M. (converted),0.0135 µM
same,IC50,[2],5.5 µM
same,IC50,[3],10.2 µM
same,IC50,[4],6.03 µM
same,IC50,[5],4.07 µM
same,IC50,[6],6.31 µM
same,IC50,[7],4.27 µM
same,IC50,[8],9.55 µM
same,IC50,[9],2.57 µM
